Drawing on PubChem BioAssay AID1531 (NMMLSC, 2009), this text covers binding response (% of control) for 35 compounds.

The entries are a selection whose mix differs from that of the whole data set. Calls of active or inactive are those of the source. Cut-off read from the data, not from the text of the source: active = binding response below about 67% or above about 130%; inconclusive = no clear call, values can overlap the other calls; inactive = in between.

This test concerns the target Mitogen-activated protein kinase kinase kinase 2 (Homo sapiens) (UniProt Q9Y2U5). Description: wildtype MEKK2 PB1-MEK5 interaction, increase or decrease – biochemical, multiplex bead flow cytometry, Alexa488-MEK5, primary screen (AID 1531). The following applies: Alexa488-MEK5 binding to MEKK2 WT, at 10 µM, actives lie on both sides. A general note: Flow cytometry measures light scatter and fluorescence of single cells or particles in a stream.
Turning to `CC(=O)Nc1ccc(Oc2c([N+](=O)[O-])cc([N+](=O)[O-])cc2[N+](=O)[O-])cc1`, the binding response (% of control) is inactive: 110%.
On to `CC(=O)Nc1ccc([As](=O)(O)O)c(O)c1`, for which the binding response (% of control) was inactive: 92%.
As for `CC(=O)c1ccc(N2CC2c2ccncc2)cc1` (stereo not given), the binding response (% of control) was inactive: 99%.
With `C[C@@H]1C=CCP(=O)(Oc2ccccc2)O1` (stereo not given in full), the binding response (% of control) is inactive: 106%.
`C[C@H]1OP(=O)(Oc2ccccc2)C[C@@H]2O[C@@H]21` (stereo not given in full): the binding response (% of control) is inactive: 102%.
For `CC(C)(C)C(=O)NC(Sc1ccccc1)C(Cl)(Cl)Cl` (stereo not given), the binding response (% of control) is inactive: 86%.
In the case of `CCOc1ccc(C2=NCC(CBr)S2)cc1` (stereo not given), the binding response (% of control) is inactive: 107%.
To `O=P1(Nc2nc3ccc(Cl)cc3s2)COc2ccccc2O1` (stereo not given) belongs inactive: 102%; to `CN(C)C(=O)Oc1noc2ccccc12`, inactive: 96%; to `O=c1c2cc([N+](=O)[O-])ccc2[nH]c2c([N+](=O)[O-])cc([N+](=O)[O-])cc12`, inactive: 81%.
Turning to `Cc1ccccc1OP(=O)(Nc1ccccn1)Oc1ccccc1C`, the binding response (% of control) was inactive: 88%.
As for `Cc1ccc(OP(=O)(Nc2ccccn2)Oc2ccc(C)cc2)cc1`, the binding response (% of control) was inactive: 86%.
In the case of `CC(=O)NC(SC(=S)N(CC(C)C)CC(C)C)C(Cl)(Cl)Cl` (stereo not given), the binding response (% of control) was inactive: 103%.
Take `COC(=O)c1cc2c(s1)N=C(c1ccccc1)N(C)P2(=O)N1CCOCC1` (stereo not given): the binding response (% of control) is inactive: 110%.
To `CCC(=O)N1C2C3N(C(=O)CC)C1C1N(C(=O)CC)C(C(N1C(=O)CC)N3C(=O)CC)N2C(=O)CC` belongs inactive: 107%; to `O=C(OC1CN2CCC1CC2)c1ccccc1` (stereo not given), inactive: 100%.
With `CCNC(=S)/N=C(\N)N[N+](=O)[O-]`, the binding response (% of control) was inactive: 104%.
Take `O=C(NC1CCS(=O)(=O)C1)NP(=S)(Oc1ccccc1)Oc1ccccc1` (stereo not given): the binding response (% of control) was inactive: 100%.
Regarding `CCOC(=O)NC(Sc1ccccc1)C(Cl)(Cl)Cl` (stereo not given), the binding response (% of control) was inactive: 101%.
To `Cc1ccc(NP(=O)(Oc2cccc(C)c2)Oc2cccc(C)c2)nc1` belongs inactive: 90%; to `c1ccc(-c2nn[nH]n2)c(-c2nn[nH]n2)c1`, inactive: 82%; to `Nc1ccc([As](=O)(O)c2ccc([N+](=O)[O-])cc2)cc1`, inactive: 101%.
To `C(Cc1nn[nH]n1)Cc1nn[nH]n1` belongs inactive: 102%; to `O=C(OC1CN2CCC1CC2)c1cccc(Cl)c1` (stereo not given), inactive: 109%; to `O=[N+]([O-])c1ccc(O)c(/C=N/Nc2ccc([N+](=O)[O-])cc2[N+](=O)[O-])c1`, inactive: 99%.
As for `O=[N+]([O-])c1ncn(CCn2cnc([N+](=O)[O-])n2)n1`, the binding response (% of control) is inactive: 95%.
As to `CC(=O)NC(SC(=S)N(C)C)C(Cl)(Cl)Cl` (stereo not given), the binding response (% of control) was inactive: 95%.
`O=[As](O)(c1ccccc1)c1ccc(O)cc1`: the binding response (% of control) was inactive: 95%.
Consider `C[C@H]1OP(=O)(Oc2ccccc2)[C@H](O)[C@H](O)[C@H]1N=[N+]=[N-]` (stereo not given in full), for which the binding response (% of control) was inactive: 102%.
Regarding `O=P(Nc1nc2ccccc2s1)(c1ccccc1)c1ccccc1`, the binding response (% of control) was inactive: 104%.
As to `O=P(Nc1ccccn1)(c1ccc(Br)cc1)c1ccc(Br)cc1`, the binding response (% of control) was inactive: 99%.
On to `CN(C)C1(CNC(=O)c2ccc(Cl)c(S(N)(=O)=O)c2)CCCCC1`, for which the binding response (% of control) is inactive: 105%.
For `c1nnnn1CCn1cnnn1`, the binding response (% of control) was inactive: 110%.
On to `CC(C)C(=O)NC(Sc1ccccc1)C(Cl)(Cl)Cl` (stereo not given), for which the binding response (% of control) was inactive: 107%.
On to `O=P(Nc1nccs1)(c1ccccc1)c1ccccc1`, for which the binding response (% of control) is inactive: 103%.
